{"source": "paper PMC9715707", "about": "“Identification of a novel peptide ligand for the cancer-specific receptor mutation EGFRvIII using high-throughput sequencing of phage-selected peptides” (Scientific Reports, 2022)", "target": "T1, EGFRvIII (Homo sapiens, UniProt P00533, DELINS30-297G)", "T1 construct": "using purified and active extracellular domain of the EGFRvIII protein; purchased Sino Biological 29662-H08B", "experiment": "Microscale thermophoresis, EGFRvIII in solution", "format": "binding", "conditions": "solution phase", "protocol": "Microscale thermophoresis (MST) were performed on a Monolith NT.115 Pico (red-pico) at 25 °C, with 5% LED power and 40% laser power. Proteins were labelled with NT 650 NHS 2nd Gen (NHS chemistry), 10 nM (final concentration) of protein was used in the experiments. A serial of 1:1 dilution with 16 concentrations of peptide was prepared. 5 μL of each dilution step were mixed with 5 μL of the fluorescent molecule. The mixture was filled in premium coated capillaries. […] The highest concentration (final concentration) of FALGEA peptide used for EGFR WT and EGFRvIII experiment was 20 µM and 10 µM respectively. The experiments were performed in an assay buffer containing 1× PBS pH 7.4, 0.005% Tween-20, 1% DMSO. Three independent experiments were performed for each condition.\nFigure S5. Analyses of interactions of EGFR WT (left panel) and EGFRvIII (right panel) in solution phase with the peptides FALGEA (top row) and VLG (bottom row) by MST. MST were performed on Monolith NT.115 Pico (red-pico) at 25 °C, with 5 % LED power and 40 % laser power. Proteins were labelled with NT 650 NHS 2nd Gen (NHS chemistry), 10 nM (final concentration) of protein was used in the experiments. A serial of 1:1 dilution with 16 concentrations of peptide was prepared. 5 μL of each dilution step were mixed with 5 μL of the fluorescent molecule. The mixture was filled in premium coated capillaries. […]", "data": [{"sequence": "VLGREEWSTSYW [novel 12-mer peptide ligand of EGFRvIII selected by phage display]", "values": [{"measurement": "MST binding to EGFRvIII, qualitative", "setting": "25 °C, 1x PBS pH 7.4, 0.005% Tween-20, 1% DMSO", "result": "weaker binding in solution"}, {"measurement": "MST selectivity EGFRvIII versus EGFR WT, qualitative", "setting": "EGFRvIII compared with EGFR WT", "result": "preferentially bind to EGFRvIII rather than EGFR WT"}]}]}
